Among the data in ChEMBL document CHEMBL1124928, “Inhibition of monoamine oxidases A and B by simple isoquinoline alkaloids: racemic and optically active 1,2,3,4-tetrahydro-, 3,4-dihydro-, and fully aromatic isoquinolines” (J Med Chem, 1990) are Ki values, retold here.

By UniProt entry, the sequences of proteins in these tests, tags left out.
UniProt P27338, whole entry: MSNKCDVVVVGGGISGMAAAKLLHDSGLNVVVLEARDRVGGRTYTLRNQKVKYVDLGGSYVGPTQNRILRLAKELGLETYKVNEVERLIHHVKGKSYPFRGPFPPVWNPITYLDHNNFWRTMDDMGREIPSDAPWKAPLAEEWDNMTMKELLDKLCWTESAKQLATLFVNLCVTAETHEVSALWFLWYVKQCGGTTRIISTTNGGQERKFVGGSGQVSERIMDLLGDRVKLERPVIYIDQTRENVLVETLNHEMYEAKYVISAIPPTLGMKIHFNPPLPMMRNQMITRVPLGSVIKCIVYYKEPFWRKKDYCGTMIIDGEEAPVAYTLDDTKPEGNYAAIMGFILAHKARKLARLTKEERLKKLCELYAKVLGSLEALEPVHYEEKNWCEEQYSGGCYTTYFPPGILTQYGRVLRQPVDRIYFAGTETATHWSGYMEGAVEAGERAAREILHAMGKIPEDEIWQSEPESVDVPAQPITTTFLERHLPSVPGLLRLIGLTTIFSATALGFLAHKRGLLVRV
UniProt P21397, whole entry: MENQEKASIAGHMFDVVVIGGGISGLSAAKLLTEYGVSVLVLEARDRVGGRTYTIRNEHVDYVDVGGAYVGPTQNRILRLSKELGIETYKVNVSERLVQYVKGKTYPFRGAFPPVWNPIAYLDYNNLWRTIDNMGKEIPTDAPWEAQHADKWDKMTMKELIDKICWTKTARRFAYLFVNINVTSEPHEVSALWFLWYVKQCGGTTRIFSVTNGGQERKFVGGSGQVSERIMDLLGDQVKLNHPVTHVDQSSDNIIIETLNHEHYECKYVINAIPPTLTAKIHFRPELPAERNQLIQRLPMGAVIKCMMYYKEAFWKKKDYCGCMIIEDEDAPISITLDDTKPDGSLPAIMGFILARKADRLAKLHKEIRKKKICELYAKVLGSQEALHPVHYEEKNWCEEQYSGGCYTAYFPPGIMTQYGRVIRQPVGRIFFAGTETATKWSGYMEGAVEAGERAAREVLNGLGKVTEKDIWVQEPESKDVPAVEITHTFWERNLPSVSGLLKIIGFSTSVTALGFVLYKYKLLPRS

Experiment [1] addresses Amine oxidase [flavin-containing] B (Homo sapiens, UniProt P27338). Kind of experiment: Compounds were tested for inhibition against human liver Monoamine oxidase B (competitive inhibition was observed).
Experiment [2] concerns the target Amine oxidase [flavin-containing] A (Homo sapiens, UniProt P21397).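 Further: enzyme source: monoamine oxidase A taken from human placenta.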

Regarding `c1ccc2c(c1)CCNC2` [1,2,3,4-TETRAHYDROISOQUINOLINE], the Ki (usually the dissociation constant of the complex between target and ligand, obtained from inhibition or displacement) amounted to 15 µM in experiment [1] and 210 µM in experiment [2].
